Data: patent EP4725969A1, “ANTI-HER2 COMPLEMENTARY BISPECIFIC ANTIBODY-DRUG CONJUGATE, PREPARATION METHOD THEREFOR AND USE THEREOF” (priority 2023, dated 2024)

Tests used:
NCI-N87(R) = assay: Mouse subcutaneous xenograft model with acquired resistance to DS-8201, NCI-N87(R); type: in vivo, BALB/c Nude mice; settings: DS-8201-resistant NCI-N87(R) model, 3 mg/kg, intravenous, four weeks
[1] = tested on: HER2-low-expression breast cancer patients; settings: Modi et al. 2022, cited from earlier work
SKBR-3 = assay: In vitro tumor cell-killing assay, SKBR-3; settings: SKBR-3, HER2-overexpressing, 3 to 5 days
SKOV-3 = settings: SKOV-3, HER2-overexpressing, 3 to 5 days
NCI-N87 = assay: In vitro tumor cell-killing assay, NCI-N87; settings: NCI-N87, HER2-overexpressing, 3 to 5 days
ZR-75-1 = assay: In vitro tumor cell-killing assay, ZR-75-1; settings: ZR-75-1, HER2-low-expressing
[2] = tested on: HER2-intermediate-expressing JIMT-1 breast cancer model; assay: Mouse subcutaneous xenograft model, JIMT-1; settings: JIMT-1 model, intravenous
[3] = tested on: HER2-low-expressing RT-112 bladder cancer model; assay: Mouse subcutaneous xenograft model, RT-112; settings: RT-112 model, intravenous
[4] = tested on: HER2-overexpressing NCI-N87 gastric cancer model; assay: Mouse subcutaneous xenograft model, NCI-N87; settings: intravenous

DS-8201
antitumor activity / tumor growth (NCI-N87(R)): continued and stable growth | response rate ([1]; HER2-low-expression breast cancer patients): ~ 50% | incidence of drug-related interstitial lung disease/pneumonia [1]: 12.1% | cell-killing activity (SKBR-3): potent cytotoxicity | cell-killing activity (SKOV-3): potent cytotoxicity | cell-killing activity (NCI-N87): potent cytotoxicity | cell-killing activity (ZR-75-1): almost no cytotoxic effect | tumor growth inhibition compared to the vehicle control [2]: significant tumor growth inhibition activities | tumor growth inhibition compared to the vehicle control [3]: significant tumor growth inhibition activities | tumor growth inhibition compared to the vehicle control [4]: significant tumor growth inhibition activities
